Biological target: T1, D-2 receptors (Rattus norvegicus, UniProt P61169)
T1 construct: The corpora striata are dissected out and homogenized; from tissue; host or cells: rat corpus striatum membranes
Assay: 3H-spiroperidol binding to rat striatal membranes (D-2 receptors)

Protein sequences, listed by entry. Tags and fused reporters are not part of them.
UniProt P61169, whole entry: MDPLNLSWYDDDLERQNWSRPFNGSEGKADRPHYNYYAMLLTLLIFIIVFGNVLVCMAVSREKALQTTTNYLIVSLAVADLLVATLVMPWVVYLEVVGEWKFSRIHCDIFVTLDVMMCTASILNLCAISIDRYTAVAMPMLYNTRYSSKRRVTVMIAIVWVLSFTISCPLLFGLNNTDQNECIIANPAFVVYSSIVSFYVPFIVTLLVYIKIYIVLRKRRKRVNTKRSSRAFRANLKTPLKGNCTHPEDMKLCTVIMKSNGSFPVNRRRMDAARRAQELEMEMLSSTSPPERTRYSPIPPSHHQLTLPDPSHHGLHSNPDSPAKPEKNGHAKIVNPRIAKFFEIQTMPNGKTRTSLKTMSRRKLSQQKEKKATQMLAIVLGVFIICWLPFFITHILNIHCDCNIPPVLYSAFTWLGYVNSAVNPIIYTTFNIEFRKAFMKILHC

## OCCN1CCN(CC/C=C2/c3ccccc3Sc3ccc(C(F)(F)F)cc32)CC1 [Cis(Z)-flupentixol, reference compound]
  IC50: 3.2 nM

Source: patent US4525360A, “Anti-psychotic phenylindene derivatives and acid addition salts thereof” (Kefalas A/S, priority 1982, dated 1985)
